According to patent publication US9669106B2, “Conjugate of monomethyl auristatin F and trastuzumab and its use for the treatment of cancer” (Pierre Fabre Medicament, priority 2015, dated 2017):

Columns and labels:
Calu-3 xenograft model [1] = assay: In vivo activity in the Calu-3 xenograft model; parameters: species or system SCID mice; settings: 1 i.p. injection of 3 mg/kg at D6, about DAR 4, tumors 250-260 mm^3; p<0.05 vs naked antibody
Protocol: In order to confirm the in vivo efficacy of antibodies coupled to G-13 or E-13 compounds, they have been coupled to Tratuzumab and tested in the HER2 sensitive xenograft model Calu-3 known for its HER2 amplification and (3) expression. The antibody Tratuzumab was purchased from Euromedex, 24 Rue des Tuileries 67460 SOUFFELWEYERSHEIM/France.
All animal procedures were performed according to the guidelines of the 2010/63/UE Directive on the protection of animals used for scientific purposes. The protocol was approved by the Animal Ethical Committee of the Pierre Fabre Institute. Seven millions Calu-3 cells were injected subcutaneous into 7 weeks old SCID mice.
Six days after Calu-3 cell implantation, when tumors reached an average size of 250-260 mm^3, the animals were divided into groups of 6 mice according to tumor size and aspect. The different treatments were inoculated by intraperitoneal injections. The health status of animals was monitored daily. Tumor volume was measured twice a week with an electronic calliper until study end. Tumor volume is calculated with the following formula: (length×width^2)/2. Toxicity was evaluated following the weight of animals three times per week. […] In this example, the anti-tumor activity of Tratuzumab mAb coupled with either E-13 or G-13 at about DAR 4 was evaluated after 1 injections of a 3 mg/kg dose at D6. […]

JIMT-1 xenograft model [2] = assay: In vivo activity in the JIMT-1 xenograft model; parameters: species or system SCID mice
Calu-3 xenograft model [3] = settings: 15 mg/kg every 6 days; published data (Cretella et al. 2014); cited from earlier work
JIMT-1 xenograft model [4] = settings: cited from earlier work; for activity of multiple injections: 15 mg/kg Q6dn, published data

In the case of Trastuzumab-G-13, the tumor growth (Calu-3 xenograft model [1]) is reported as “complete tumor growth regression in all treated mice” and the tumor growth inhibition (JIMT-1 xenograft model [2]; tumor volume 650 mm^3 (Days 36) at treatment, 20 days after a single injection) is reported as “more than 50%”.

In the case of “TDM-1: ADC on the market: Trastuzumab linked to the antimicrotubule agent DM1 (a maytansinoid)”, the tumor regression (Calu-3 xenograft model [3]) is given as “did not induced complete regression”, the “activity of multiple injections” value (JIMT-1 xenograft model [4]; compared with 350 mm^3 experiment) is given as “inactive” and the “activity of multiple injections” value (JIMT-1 xenograft model [4]; compared with 650 mm^3 experiment) is given as “inactive”. The “potency compared with Trastuzumab-E-13 or Trastuzumab-G-13” value (JIMT-1 xenograft model [4]; 15 mg/kg every 6 days, published data (Barok et al. 2011)) was “seems to be less potent”.

In the case of Trastuzumab-E-13, the tumor growth (Calu-3 xenograft model [1]) is reported as “complete tumor growth regression in all treated mice”.

With “Trastuzumab: antibody Trastuzumab (Herceptin; 4D5; Genentech) which targets HER2; purchased from Euromedex” the anti-tumoral effect (JIMT-1 xenograft model [2]; Trastuzumab alone, first experiment (FIG. 5)) was “did not have any anti-tumoral effect”.

Like-named read-outs stand apart in the source and are kept apart here.
